In patent US9637496B2, “Substituted 7-azabicycles and their use as orexin receptor modulators” (priority 2013, dated 2017):
pKi: −log10 of the molar value.

Amino acid sequences for entries named in this document (tags omitted).
UniProt O43613, whole entry: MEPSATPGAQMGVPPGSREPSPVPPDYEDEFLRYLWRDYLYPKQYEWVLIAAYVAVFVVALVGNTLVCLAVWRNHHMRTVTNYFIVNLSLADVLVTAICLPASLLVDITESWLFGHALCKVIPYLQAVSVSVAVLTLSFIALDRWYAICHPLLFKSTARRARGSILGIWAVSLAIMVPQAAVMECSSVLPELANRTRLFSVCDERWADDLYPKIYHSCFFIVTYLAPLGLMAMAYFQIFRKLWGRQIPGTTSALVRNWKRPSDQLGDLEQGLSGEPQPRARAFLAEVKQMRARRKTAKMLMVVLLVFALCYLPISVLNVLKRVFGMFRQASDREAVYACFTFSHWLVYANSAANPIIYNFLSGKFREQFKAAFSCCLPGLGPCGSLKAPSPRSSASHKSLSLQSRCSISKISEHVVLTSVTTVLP

Biological target: human orexin 1 receptor (Homo sapiens (Human), UniProt O43613)
Experiment: Human orexin 1 receptor radioligand binding (competitive binding, CHO membranes)

`O=C(c1ccccc1-n1nccn1)N1C2CCC1C(Nc1cc(C(F)(F)F)ccn1)C2` (racemic) [Example 210, (±)-((2-(2H-1,2,3-triazol-2-yl)phenyl)(2-((4-(trifluoromethyl)pyridin-2-yl)amino)-7-azabicyclo[2.2.1]heptan-7-yl)methanone] gave a pKi of 6.89.
